Earlier results as cited in patent publication US20060240402A1, “Marine invertebrate gametes and embryos as an assay system for therapeutic screening” (priority 2005, published 2006).

System: tubulin
Details: reported to inhibit mitosis; cited from earlier work

## COc1cc2c(c(OC)c1OC)-c1ccc(OC)c(=O)cc1[C@@H](NC(C)=O)CC2 [Colchicine]
  Effect on tubulin polymerization (reported): significantly affecting tubulin polymerization
